Earlier results on one molecule are cited in paper PMC9740255 (Cells, 2022).

Molecules are shown by their SMILES.

This data set has as its target hNET. Set-up: method as in ref 32 (Tatsumi et al. 1997). The note with it: footnote a: hNET in HEK293 cells, [3H]nisoxetine; ref 32 (Tatsumi et al. 1997); read-out: NET Ki; cited from earlier work.

Turning to `CC(NC(C)(C)C)C(=O)c1cccc(Cl)c1` (stereo not shown) [Bupropion], the Ki (commonly a dissociation constant, usually derived from enzyme kinetics or from competition with a known ligand) is 52 ± 1 µM.
